From patent US10058550B2

The chains behind the UniProt entries cited, without tags or fusion partners.
UniProt P35414, whole entry: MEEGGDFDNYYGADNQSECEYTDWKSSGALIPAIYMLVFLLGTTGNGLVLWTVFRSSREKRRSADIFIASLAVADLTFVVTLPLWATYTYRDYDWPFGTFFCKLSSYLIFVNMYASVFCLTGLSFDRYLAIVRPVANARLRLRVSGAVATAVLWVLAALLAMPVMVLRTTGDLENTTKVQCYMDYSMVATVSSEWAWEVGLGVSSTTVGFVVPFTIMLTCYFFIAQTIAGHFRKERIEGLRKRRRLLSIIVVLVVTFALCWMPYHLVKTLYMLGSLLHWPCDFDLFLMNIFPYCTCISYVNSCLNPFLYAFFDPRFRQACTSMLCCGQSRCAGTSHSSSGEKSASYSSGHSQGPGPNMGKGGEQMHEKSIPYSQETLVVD

Target: human APJ receptor (Homo sapiens (Human), UniProt P35414)
Conditions: read-out: Activity hAPJ SPA EC50 IP

CCO[C@@H](c1ncc(C)cn1)[C@@H](C)S(=O)(=O)Nc1nnc(-c2cncc(C)c2)n1-c1c(F)cccc1F (relative stereo)
EC50: 5.8 nM
